Laboratory results reported in patent publication US20040037843A1.
Read-outs that look alike come from different tables or passages of the source.

Columns and labels:
Conditions in all cases: remark: other sources report otherwise
[1] = molecular target: HLA-A*0202 (human); assay: competition with 125I-labeled probe peptide for purified HLA, gel filtration
[2] = molecular target: HLA-A*0201 (human); assay: as above
[3] = molecular target: HLA-A*0202 (human)
[4] = molecular target: HLA-A*0206 (human)
[5] = molecular target: HLA-A*0201 (human)
[6] = molecular target: HLA-A*0203 (human)

Row | Binder | IC50 [1] [nM] | IC50 [2] [nM] | IC50 [3] [nM] | IC50 [4] [nM] | IC50 [5] [nM] | IC50 [6] [nM]
1 | QLMFLERAFI [Peptide 1126.16] | 36 | 98 |  |  |  | 
2 | KVTEFMLCV [peptide 1418.21, HuK2.191.V9] |  |  | 27 | 34 | 53 | 31
